One substance from patent US8637558B2 (Industry-Academic Cooperation Foundation, Chosun University, priority 2008, dated 2014) can be followed below.

Amino acid sequences for entries named in this document (tags omitted). A change or cut given only in a name is not applied to a line headed by its entry.
UniProt P15428: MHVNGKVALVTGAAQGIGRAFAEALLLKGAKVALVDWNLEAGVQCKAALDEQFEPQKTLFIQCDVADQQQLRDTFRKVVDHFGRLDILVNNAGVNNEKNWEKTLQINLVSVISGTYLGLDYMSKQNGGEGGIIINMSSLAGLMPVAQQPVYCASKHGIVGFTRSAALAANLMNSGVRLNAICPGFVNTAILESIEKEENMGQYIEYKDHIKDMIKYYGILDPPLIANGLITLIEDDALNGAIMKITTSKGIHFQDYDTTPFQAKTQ

The test has as its target 15-PGDH (Homo sapiens (Human), UniProt P15428). Put plainly: Assay for the activities of 15-PGDH inhibitors (formation of NADH at 340 nm). Conditions: purified 15-PGDH enzyme, 21 μM PGE2, 0.25 mM NAD+, pH 7.5; concentration inhibiting 50% of 15-PGDH activity. In kind it is biochemical. How it is done:
<1-1> Expression and Purification of 15-PGDH
A 15-PGDH cDNA plasmid containing BamHI and EcoRI sites of the pGES-2T expression vector was used to transform Escherichia coli BL-21 lysS in accordance with the ordinarily used in the art. The transformed cells were grown in 500 mL LB medium containing 50 μg/mL ampicillin at 37° C. while being stirred at 220 rpm until the OD600 reached 0.6. Isopropyl β-D-thiogalactoside (1 mM) was added and the cells were allowed to grow for 12 hours at 25° C. Then, the pellets were harvested by centrifugation at 4000×g for 30 minutes at 4° C. The cell pallets were resuspended in 20 mL cell lysis buffer (1×PBS buffer (pH 7.4) containing 1 mM EDTA and 0.1 mM DTT) and sonicated (14×10 s at 4° C.). The disrupted cells were centrifuged at 4000×g for 20 minutes at 4° C. The supernatant was loaded slowly on a glutathione-sepharose 4B column, which was equilibrated at 4° C. with a cell lysis buffer (1×PBS buffer (pH 7.4) containing 1 mM EDTA and 0.1 mM DTT). […] The concentration and the purity of the purified enzyme were determined by SDS-PAGE. […]
The absorbance of the reaction mixture was recorded at 340 nm so that the activities of the derivatives according to the present invention as 15-PGDH inhibitors were determined from a standard curve prepared from the absorbance of various concentrations of NADH at 340 nm.

Consider “5-(3-(benzyloxy)-2-chlorobenzylidene)thiazolidine-2,4-dione [Derivative 72]”, for which inhibition was half-maximal at 257 nM (IC50).
